# Experimental data published in PMC12044326 (Clinical Pharmacology in Drug Development, 2025).
# Sequences of proteins named here, by UniProt entry; tags and fusion partners are left off. Residues count along the entry.
# UniProt P08684, 2-503: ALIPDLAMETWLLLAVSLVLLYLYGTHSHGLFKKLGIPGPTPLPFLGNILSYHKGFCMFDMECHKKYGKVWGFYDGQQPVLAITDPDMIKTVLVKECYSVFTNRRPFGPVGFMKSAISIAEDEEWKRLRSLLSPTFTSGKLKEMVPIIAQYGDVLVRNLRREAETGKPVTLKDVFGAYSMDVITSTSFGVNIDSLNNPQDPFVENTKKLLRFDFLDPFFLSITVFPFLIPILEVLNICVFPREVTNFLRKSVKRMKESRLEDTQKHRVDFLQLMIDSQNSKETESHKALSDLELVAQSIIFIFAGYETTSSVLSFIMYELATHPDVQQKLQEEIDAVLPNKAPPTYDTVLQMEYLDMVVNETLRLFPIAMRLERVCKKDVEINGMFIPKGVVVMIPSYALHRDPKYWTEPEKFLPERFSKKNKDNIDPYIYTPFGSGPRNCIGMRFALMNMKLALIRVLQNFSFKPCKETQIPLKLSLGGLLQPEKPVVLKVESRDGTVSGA
# What was measured:
# UGT1A9 = target: T1, UGT1A9 (Homo sapiens, UniProt O60656); conditions: cultured primary human hepatocytes; cited from earlier work
# T1 sequence (O60656 26-530): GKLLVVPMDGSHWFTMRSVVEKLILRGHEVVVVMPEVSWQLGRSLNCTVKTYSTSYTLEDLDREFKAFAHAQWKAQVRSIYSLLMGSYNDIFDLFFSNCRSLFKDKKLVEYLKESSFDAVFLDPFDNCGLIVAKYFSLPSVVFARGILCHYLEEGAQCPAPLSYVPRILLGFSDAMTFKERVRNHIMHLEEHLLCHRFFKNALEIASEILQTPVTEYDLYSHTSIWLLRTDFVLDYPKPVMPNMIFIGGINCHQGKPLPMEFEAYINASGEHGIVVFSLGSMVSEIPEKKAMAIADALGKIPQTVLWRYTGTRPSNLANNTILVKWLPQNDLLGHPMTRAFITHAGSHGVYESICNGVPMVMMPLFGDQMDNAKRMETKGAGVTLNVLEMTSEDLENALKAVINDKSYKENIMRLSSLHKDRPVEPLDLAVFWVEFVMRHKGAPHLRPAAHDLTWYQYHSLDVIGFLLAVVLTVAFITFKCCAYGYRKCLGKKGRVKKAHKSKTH
# UGT2B4 = target: T2, UGT2B4 (Homo sapiens, UniProt P06133); conditions: cultured primary hepatocytes; cited from earlier work
# T2 sequence (P06133 24-528): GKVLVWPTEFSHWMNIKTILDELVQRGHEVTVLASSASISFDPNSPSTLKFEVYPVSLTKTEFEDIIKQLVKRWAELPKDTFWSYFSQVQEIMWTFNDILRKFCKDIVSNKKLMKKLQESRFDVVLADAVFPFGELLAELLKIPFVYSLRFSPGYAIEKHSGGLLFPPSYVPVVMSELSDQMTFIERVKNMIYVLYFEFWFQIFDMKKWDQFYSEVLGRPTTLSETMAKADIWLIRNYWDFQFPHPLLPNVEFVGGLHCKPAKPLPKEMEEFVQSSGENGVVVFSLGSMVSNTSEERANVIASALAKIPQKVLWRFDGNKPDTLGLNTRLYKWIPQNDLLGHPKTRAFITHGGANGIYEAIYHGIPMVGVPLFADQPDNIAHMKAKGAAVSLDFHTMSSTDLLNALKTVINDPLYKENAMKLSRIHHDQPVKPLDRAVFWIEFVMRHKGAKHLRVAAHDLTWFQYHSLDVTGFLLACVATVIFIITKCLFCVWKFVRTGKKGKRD
# in vitro = in vitro ADME
# Excerpt: […]. […] […]. […] […]
# CYP3A [1] = target: T3, CYP3A (Homo sapiens, UniProt P08684); conditions: human liver microsomes
# [2] = PBPK simulation of soticlestat PK after single and multiple doses; set-up: species or system human; conditions: arithmetic means
# Excerpt: All PBPK modeling and simulation used the Simcyp v20 Population‐based Simulator (Simcyp Ltd, a Certara Company, Sheffield, UK). The modeling was split into 4 parts: development, refinement, verification, and application (Figure 1). The studies contributing to the model, which phase of model development/validation the data were used for, the number of individuals with available data from each study, the number of PK data points available from each study, and the number of PK datapoints below the lower limit of quantification (LLOQ) from each study are presented in Table S1. […] No additional data points were excluded. Predictions of plasma drug concentration–time profiles, clearance, and DDIs were performed in the Simcyp Simulator using a population of virtual individuals. In model development, refinement, and verification, the proportion of female participants, the number of volunteers, and the volunteer age range were set to be the same as in the clinical studies.
# CYP3A [3] = target: T3, CYP3A; conditions: cited from earlier work
# [4] = single IV dose [14C] soticlestat 50 µg
# [5] = with itraconazole relative to soticlestat alone
# [6] = with rifampin relative to soticlestat alone
compound,measurement,setting,value
CO[C@H]1/C=C/O[C@@]2(C)Oc3c(C)c(O)c4c(O)c(c(/C=N/N5CCN(C)CC5)c(O)c4c3C2=O)NC(=O)/C(C)=C\C=C\[C@H](C)[C@H](O)[C@@H](C)[C@@H](O)[C@@H](C)[C@H](OC(C)=O)[C@@H]1C [rifampin],increase of UGT1A9‐mediated propofol glucuronidation,UGT1A9,up to 1.7 fold
same,increase of expression of UGT2B4,UGT2B4,1.89 fold
O=C(c1cccnc1-c1ccncc1)N1CCC(O)(Cc2ccccc2)CC1 [Soticlestat],blood plasma ratio,in vitro,0.687
same,inhibition of CYP3A,CYP3A [1],low double‐digit micromolar values
same,simulated AUC0‐inf relative to observed,[2]; [4],0.90 fold
same,simulated Cmax relative to observed,[2]; [4],1.51 fold
same,simulated AUC0‐inf relative to observed,[2]; single oral dose 300 mg,0.88 fold
same,simulated Cmax relative to observed,[2]; single oral dose 300 mg,0.78 fold
same,increase of soticlestat AUC0‐inf,CYP3A [3]; [5],24%
same,increase of soticlestat Cmax,CYP3A [3]; [5],17%
same,decrease of soticlestat AUC0‐inf,CYP3A [3]; [6],84%
same,decrease of soticlestat Cmax,CYP3A [3]; [6],87%
